Assay results as given in patent US6936584B1, “Mixed amylin activity compounds” (Amylin Pharmaceuticals, Inc., priority 1998, dated 2005).

Test system: gastric emptying in rats
Test: Phenol red gastric emptying assay in conscious rats
Conditions: conscious rat model; adrenomedullin at highest doses (100 μg)

CGRP: calcitonin gene related peptide
inhibition of gastric emptying: dose-dependently inhibit gastric emptying
